# Assay results published in ChEMBL document CHEMBL1156750 (Bioorg Med Chem Lett, 2009).
# Key:
# Homo sapiens [1] = species: Homo sapiens; test: Selectivity for human coagulation factor 10a over human trypsin
# Homo sapiens [2] = species: Homo sapiens; test: Selectivity for human coagulation factor 10a over human t-PA
# Homo sapiens [3] = species: Homo sapiens; test: Selectivity for human coagulation factor 10a over human Tryptase
# Homo sapiens [4] = species: Homo sapiens; test: Selectivity for human coagulation factor 10a over human thrombin
smiles,measurement,setting,value
Cc1cc2cc(N/C(=N\C(=O)c3ccc(C(=O)N(C)C)nc3)N[C@H]3CCCCN(CC(=O)N4CCCC4)C3=O)ccc2o1,fold change (FC),Homo sapiens [1],> 1500
same,fold change (FC),Homo sapiens [2],> 100
same,fold change (FC),Homo sapiens [3],> 1500
same,fold change (FC),Homo sapiens [4],> 440
